In the library only some 1.8% were active in any assay of this set; here they are far more common.
Cneo AK release: Cryptococcus neoformans lysis via adenylate kinase release; lysis activity, % at 15 µM; C. neoformans lysis, adenylate kinase release luminescence, 4 h; normalised: neutral wells 0, clomiphene wells 100; AID 651654; actives 0.2% (n = 360,000);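 active = mean lysis activity across replicates of at least 80%, whatever share of replicates individually reach that level; inactive = mean lysis activity below 80%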
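Assay system: C. neoformans cells. Amount: yeast cell density of 5 × 10^6 cells/mL. Technique: AK luminescence. Buffer or medium: YPD. Times: static 4 h at 37 °C with compound, 1 h detection. Dosing: single-point compound dose. Read-out: lysis from increased AK signal.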
E-sel inducer: induces E-selectin expression in human endothelial cells | P16581 | HUVEC E-selectin immunofluorescence imaging; normalized: neutral wells 0, TNF-alpha wells 100 | activation, % at 7.58 µM | actives 0.37% (n = 260,000) | AID 686992;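 active = mean E-selectin-positive cell signal at least 10% of the positive control, reached in at least 60% of replicates, without over 20% cell loss; inconclusive = no rule given, readout overlaps actives, possibly toxicity-flagged; inactive = the rest, including those meeting only one limit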
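Test system: HUVEC | Signal: Immunofluorescence imaging | Read-out: Percent E-selectin-positive cells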
Yeast UUG start: modulators of start codon recognition fidelity in yeast; AID 602363; hit rate 0.13% among 350,000; activity score, % at 18.7 µM; S. cerevisiae UUG-firefly luciferase reporter, luminescence/redox ratio;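 active = replicate mean at a twofold rise or more, about +100% in these data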;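 note: firefly luciferase made from a UUG start codon reports start codon fidelity; reporter light over untreated wells divided by growth signal over untreated wells; some hits fall short of that in this replicate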
DENV2 CPE: inhibitors of DENV2 cytopathic effect | DENV2-infected cells, cytopathic effect rescue, plate reader | CPE inhibition, % at 9.99 µM | actives 1.7% (n = 350,000) | AID 651640; in the data active = CPE inhibition above about 20%, passing the limit was not always enough; inconclusive = no clear call, values can overlap the other calls; tested in BHK-21 cells;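 note: 0% = median of neutral control wells and 100% = median of positive control wells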
* hit, by the source's call; ? = inconclusive; . = not tested or not shown.

The line under a structure holds: Yeast UUG start | DENV2 CPE | E-sel inducer | Cneo AK release
#1 COc1ccc(S(=O)(=O)Nc2ccc3c(c2)C(=O)N([C@H](C)CO)C[C@H](C)[C@H](CN(C)Cc2ccncc2)OCCCC[C@H](C)O3)cc1
→ -0.5 | 48.1* | 0.1 | 0.8
#2 COc1ccc(S(=O)(=O)Nc2ccc3c(c2)C(=O)N([C@H](C)CO)C[C@@H](C)[C@H](CN(C)Cc2ccncc2)OCCCC[C@H](C)O3)cc1
→ 5.9 | -11.5 | 0.0 | 52.7
#3 COc1ccc(S(=O)(=O)Nc2ccc3c(c2)C(=O)N([C@H](C)CO)C[C@H](C)[C@H](CN(C)Cc2ccncc2)OCCCC[C@@H](C)O3)cc1
→ 7.1 | 21.7* | 0.0 | -0.1
#4 C[C@@H]1CN([C@@H](C)CO)C(=O)c2cc(NS(C)(=O)=O)ccc2O[C@@H]1CN(C)C(=O)Nc1ccc(C(F)(F)F)cc1
→ 9.7 | -9.0 | -3.9 | 1.3
#5 Cn1cnc(S(=O)(=O)N2CC[C@@H]3[C@@H](CO)Nc4ccc(C#Cc5ccc(F)cc5)cc4[C@@H]32)c1
→ . | 0.6 | 0.2 | .
#6 COc1ccc(CN(C)C[C@@H]2OCCCC[C@@H](C)Oc3ccc(NC(=O)Nc4ccc(F)cc4)cc3C(=O)N([C@H](C)CO)C[C@H]2C)cc1
→ 16.0 | 0.3 | 0.3 | 6.4
#7 C[C@@H]1CN([C@@H](C)CO)C(=O)c2cc(C3=CCCC3)cnc2O[C@H]1CN(C)C(=O)c1ccncc1
→ 7.6 | 6.3 | 1.0 | -2.6
#8 C[C@@H]1CN([C@H](C)CO)C(=O)CCCn2nncc2CO[C@@H]1CN(C)C(=O)Nc1ccc(F)cc1
→ -4.2 | 19.6 | 0.1 | -1.5
#9 CCCNC(=O)N1CC2(CN(S(C)(=O)=O)C2)c2c(n(C)c3cc(OC)ccc23)[C@H]1CO
→ . | 14.6 | -0.3 | .
#10 Cc1ccc(S(=O)(=O)N(C)C[C@@H]2Oc3ccc(NC(=O)NC4CCCCC4)cc3C(=O)N([C@H](C)CO)C[C@@H]2C)cc1
→ -7.9 | 28.5* | 1.1 | -0.6
#11 C[C@@H]1CN([C@H](C)CO)C(=O)c2cc(NC(=O)NC3CCCCC3)ccc2O[C@H]1CN(C)S(=O)(=O)c1ccc(Cl)cc1
→ -8.9 | 1.7 | 141.0* | -2.7
#12 Cc1noc(C)c1NC(=O)Nc1ccc2c(c1)C(=O)N([C@H](C)CO)C[C@@H](C)[C@H](CN(C)S(=O)(=O)c1ccc(Cl)cc1)O2
→ 4.0 | -0.1 | 0.3 | 0.9
#13 Cc1noc(C)c1NC(=O)Nc1ccc2c(c1)C(=O)N([C@@H](C)CO)C[C@@H](C)[C@H](CN(C)S(=O)(=O)c1ccc(Cl)cc1)O2
→ 5.1 | 28.2* | 2.2 | 5.6
#14 C[C@H](CO)N1C[C@H](C)[C@@H](CN(C)C(=O)Nc2ccc3c(c2)OCO3)Oc2ccc(NC(=O)CCCN(C)C)cc2C1=O
→ . | 0.1 | 6.6 | .
#15 Cc1ccc(S(=O)(=O)N[C@@H]2CC[C@H](CC(=O)NCc3ccc(Cl)c(Cl)c3)O[C@H]2CO)cc1
→ -18.6 | 21.7* | 0.8 | 4.0
#16 O=C(C[C@H]1CC[C@H](NS(=O)(=O)c2ccc(F)cc2)[C@H](CO)O1)NCc1ccncn1
→ -1.5 | 23.4* | -1.9 | -1.8
#17 Cc1ccc(S(=O)(=O)N[C@@H]2CC[C@H](CC(=O)NCc3ccc(Cl)c(Cl)c3)O[C@@H]2CO)cc1
→ -6.2 | -11.8 | -0.3 | -6.9
#18 Cc1ccc(S(=O)(=O)N[C@H]2CC[C@H](CC(=O)NCc3ccccc3F)O[C@H]2CO)cc1
→ 20.6 | 3.4 | 1.2 | 99.7*
#19 O=C(C[C@@H]1CC[C@H](NS(=O)(=O)c2ccc(F)cc2)[C@@H](CO)O1)NCc1ccncn1
→ 1.7 | 4.5 | -2.1 | -4.8
#20 C[C@H](NC(=O)C[C@@H]1CC[C@H](NC(=O)C2CC2)[C@@H](CO)O1)c1ccccc1
→ -9.1 | -0.4 | -0.3 | -2.3

Reprinted at random: three records from the list.
The line under a structure holds: Yeast UUG start | DENV2 CPE | E-sel inducer | Cneo AK release
#9 CCCNC(=O)N1CC2(CN(S(C)(=O)=O)C2)c2c(n(C)c3cc(OC)ccc23)[C@H]1CO
→ . | 14.6 | -0.3 | .
#5 Cn1cnc(S(=O)(=O)N2CC[C@@H]3[C@@H](CO)Nc4ccc(C#Cc5ccc(F)cc5)cc4[C@@H]32)c1
→ . | 0.6 | 0.2 | .
#16 O=C(C[C@H]1CC[C@H](NS(=O)(=O)c2ccc(F)cc2)[C@H](CO)O1)NCc1ccncn1
→ -1.5 | 23.4* | -1.9 | -1.8

Next structures
The line under a structure holds: Yeast UUG start | DENV2 CPE | E-sel inducer | Cneo AK release
#21 C[C@@H]1CN([C@@H](C)CO)C(=O)c2cc(NC(=O)Cc3ccccc3)ccc2O[C@@H](C)CCCCO[C@H]1CN(C)C
→ 8.3 | -2.5 | -0.2 | -0.3
#22 CCCCC[C@H](C)N1C[C@@H](COCc2ccccc2)Oc2cc(N3CC[C@H](N(C)C)C3)ccc2S1(=O)=O
→ . | 61.0* | 0.2 | .
#23 CC1=[N+](C)c2ccc3ccccc3c2C1(C)C
→ . | ? | 196.2* | .
#24 CCN1C(=NCCN2CCOCC2)N[C@@H](c2ccccc2)C(C(=O)OC)=C1C
→ -8.7 | -3.6 | 0.0 | 0.0
#25 COC(=O)C1=C(C)N(Cc2ccccc2)C(=NCCN2CCOCC2)N[C@H]1CCc1ccccc1
→ 0.0 | 44.0* | -0.1 | -0.9
#26 O=C(NCC1CC1)c1onc(CSc2ccc(F)c(F)c2)c1C(=O)NCC1CC1
→ -6.4 | 63.5* | -0.2 | -3.4
#27 C=CCNC(=O)c1onc(CSc2ccc(F)c(F)c2)c1C(=O)NCC=C
→ 3.3 | . | -0.1 | -7.2
